From patent US20150017651

T1: GST-Gli1F1 (GST fusion of Gli1 amino acids 1-500), P08151
T1 chain: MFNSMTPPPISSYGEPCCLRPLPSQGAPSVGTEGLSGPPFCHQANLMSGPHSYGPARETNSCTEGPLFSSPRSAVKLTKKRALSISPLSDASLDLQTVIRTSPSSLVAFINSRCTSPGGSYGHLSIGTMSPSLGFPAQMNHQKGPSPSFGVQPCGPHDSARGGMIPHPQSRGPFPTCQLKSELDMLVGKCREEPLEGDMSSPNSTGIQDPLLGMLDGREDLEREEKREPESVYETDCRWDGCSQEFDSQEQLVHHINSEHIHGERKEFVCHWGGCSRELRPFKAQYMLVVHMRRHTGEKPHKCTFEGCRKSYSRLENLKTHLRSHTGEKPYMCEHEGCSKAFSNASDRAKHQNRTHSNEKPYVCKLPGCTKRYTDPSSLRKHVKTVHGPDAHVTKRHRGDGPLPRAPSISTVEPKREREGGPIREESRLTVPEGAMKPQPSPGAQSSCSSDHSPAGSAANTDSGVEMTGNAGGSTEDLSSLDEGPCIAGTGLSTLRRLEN

T2: GST-Gli1F2 (GST fusion of Gli1 amino acid 501 to the end), P08151
T2 chain: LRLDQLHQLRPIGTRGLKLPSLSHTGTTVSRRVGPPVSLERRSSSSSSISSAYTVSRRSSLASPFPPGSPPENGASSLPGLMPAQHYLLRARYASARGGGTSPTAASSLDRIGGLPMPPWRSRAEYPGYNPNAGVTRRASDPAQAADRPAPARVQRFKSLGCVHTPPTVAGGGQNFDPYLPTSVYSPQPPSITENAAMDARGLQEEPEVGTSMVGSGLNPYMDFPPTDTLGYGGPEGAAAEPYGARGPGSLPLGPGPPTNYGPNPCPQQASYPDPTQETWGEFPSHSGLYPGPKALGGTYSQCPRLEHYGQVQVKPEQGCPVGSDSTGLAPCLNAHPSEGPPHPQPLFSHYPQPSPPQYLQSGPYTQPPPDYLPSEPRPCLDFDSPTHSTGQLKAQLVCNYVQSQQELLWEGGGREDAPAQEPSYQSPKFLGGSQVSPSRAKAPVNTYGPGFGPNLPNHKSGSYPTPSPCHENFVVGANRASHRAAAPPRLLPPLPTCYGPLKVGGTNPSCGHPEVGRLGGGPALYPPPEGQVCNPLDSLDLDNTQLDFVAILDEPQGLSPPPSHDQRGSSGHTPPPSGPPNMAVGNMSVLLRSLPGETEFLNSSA

T3: Gli1 (wild-type, full-length), P08151
T3 chain: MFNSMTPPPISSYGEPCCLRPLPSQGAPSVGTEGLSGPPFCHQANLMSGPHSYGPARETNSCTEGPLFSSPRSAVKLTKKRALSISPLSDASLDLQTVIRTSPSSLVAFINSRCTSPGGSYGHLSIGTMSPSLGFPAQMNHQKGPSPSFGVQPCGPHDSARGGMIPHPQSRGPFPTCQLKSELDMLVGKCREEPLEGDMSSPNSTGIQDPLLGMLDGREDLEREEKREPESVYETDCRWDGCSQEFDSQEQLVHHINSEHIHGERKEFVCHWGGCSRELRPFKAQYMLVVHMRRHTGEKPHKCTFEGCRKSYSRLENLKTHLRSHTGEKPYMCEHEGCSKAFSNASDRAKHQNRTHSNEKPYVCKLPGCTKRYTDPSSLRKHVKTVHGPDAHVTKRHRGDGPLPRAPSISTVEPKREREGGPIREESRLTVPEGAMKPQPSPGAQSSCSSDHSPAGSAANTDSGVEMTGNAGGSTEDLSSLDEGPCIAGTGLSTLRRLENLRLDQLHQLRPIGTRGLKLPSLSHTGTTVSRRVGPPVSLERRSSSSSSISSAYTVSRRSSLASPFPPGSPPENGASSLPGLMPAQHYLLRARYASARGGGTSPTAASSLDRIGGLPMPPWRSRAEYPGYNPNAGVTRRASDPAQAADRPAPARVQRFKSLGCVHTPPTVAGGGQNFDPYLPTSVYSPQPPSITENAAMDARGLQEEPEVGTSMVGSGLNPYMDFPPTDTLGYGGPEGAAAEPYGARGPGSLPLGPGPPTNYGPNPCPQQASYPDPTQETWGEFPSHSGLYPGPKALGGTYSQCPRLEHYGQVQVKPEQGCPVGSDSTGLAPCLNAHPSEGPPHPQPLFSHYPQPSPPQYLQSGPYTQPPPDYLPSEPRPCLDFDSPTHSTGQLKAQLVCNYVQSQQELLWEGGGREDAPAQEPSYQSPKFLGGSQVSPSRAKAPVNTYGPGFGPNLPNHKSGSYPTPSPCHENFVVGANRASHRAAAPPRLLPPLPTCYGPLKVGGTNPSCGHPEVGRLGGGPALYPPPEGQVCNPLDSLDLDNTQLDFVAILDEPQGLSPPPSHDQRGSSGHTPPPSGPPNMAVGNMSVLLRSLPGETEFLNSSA


Columns and labels:
[1] = molecular target: T1, GST-Gli1F1 (GST fusion of Gli1 amino …)
[2] = molecular target: GST-Gli1F1 with the alanine substitution of serine 84, P08151
[3] = molecular target: T2, GST-Gli1F2 (GST fusion of Gli1 amino …)
[4] = molecular target: T3, Gli1 (wild-type, full-length), P08151

| Protein | in vitro kinase assay (phosphorylation of the purified GST fragment) [1] | in vitro kinase assay (phosphorylation of the purified GST fragment) [2] | in vitro kinase assay (phosphorylation of the purified GST fragment) [3] | serine/threonine phosphorylation of immunoprecipitated endogenous Gli1 (Western blot) [4] |
| --- | --- | --- | --- | --- |
| HA-tagged wild-type S6K1 (protein) MAGVFDIDLDQPEDAGSEDELEEGGQLNESMDHGGVGPYELGMEHCEKFEISETSVNRGPEKIRPECFELLRVLGKGGYGKVFQVRKVTGANTGKIFAMKVLKKAMIVRNAKDTAHTKAERNILEEVKHPFIVDLIYAFQTGGKLYLILEYLSGGELFMQLEREGIFMEDTACFYLAEISMALGHLHQKGIIYRDLKPENIMLNHQGHVKLTDFGLCKESIHDGTVTHTFCGTIEYMAPEILMRSGHNRAVDWWSLGALMYDMLTGAPPFTGENRKKTIDKILKCKLNLPPYLTQEARDLLKKLLKRNAASRLGAGPGDAGEVQAHPFFRHINWEELLARKVEPPFKPLLQSEEDVSQFDSKFTRQTPVDSPDDSTLSESANQVFLGFTYVAPSVLESVKEKFSFEPKIRSPRRFIGSPRTPVSPVKFSPGDFWGRGASASTANPQTPVEYPMETSGIEQMDVTMSGEASAPLPIRQPNSGPYKKQAFPMISKRPEHLRMNL | only one of the Gli1 fragments containing amino acids 1-500, Gli1F1, was phosphorylated by S6K1 but not by S6K1K100R | When Ser84 was mutated to alanine (Gli1S84A), phosphorylation of Gli1 by S6K1 disappeared | only one of the Gli1 fragments containing amino acids 1-500, Gli1F1, was phosphorylated by S6K1 (Gli1F2 was not) | serine/threonine phosphorylation of Gli1 was observed with the ectopic expression of S6K1 or S6K1T389E (FIG. 3A), but neither S6K1T389A nor S6K1K100R |
| HA-tagged kinase-dead S6K1K100R (protein) MAGVFDIDLDQPEDAGSEDELEEGGQLNESMDHGGVGPYELGMEHCEKFEISETSVNRGPEKIRPECFELLRVLGKGGYGKVFQVRKVTGANTGKIFAMRVLKKAMIVRNAKDTAHTKAERNILEEVKHPFIVDLIYAFQTGGKLYLILEYLSGGELFMQLEREGIFMEDTACFYLAEISMALGHLHQKGIIYRDLKPENIMLNHQGHVKLTDFGLCKESIHDGTVTHTFCGTIEYMAPEILMRSGHNRAVDWWSLGALMYDMLTGAPPFTGENRKKTIDKILKCKLNLPPYLTQEARDLLKKLLKRNAASRLGAGPGDAGEVQAHPFFRHINWEELLARKVEPPFKPLLQSEEDVSQFDSKFTRQTPVDSPDDSTLSESANQVFLGFTYVAPSVLESVKEKFSFEPKIRSPRRFIGSPRTPVSPVKFSPGDFWGRGASASTANPQTPVEYPMETSGIEQMDVTMSGEASAPLPIRQPNSGPYKKQAFPMISKRPEHLRMNL | only one of the Gli1 fragments containing amino acids 1-500, Gli1F1, was phosphorylated by S6K1 but not by S6K1K100R | – | – | serine/threonine phosphorylation of Gli1 was observed with the ectopic expression of S6K1 or S6K1T389E (FIG. 3A), but neither S6K1T389A nor S6K1K100R |
| HA-tagged constitutively activated S6K1T389E (protein) MAGVFDIDLDQPEDAGSEDELEEGGQLNESMDHGGVGPYELGMEHCEKFEISETSVNRGPEKIRPECFELLRVLGKGGYGKVFQVRKVTGANTGKIFAMKVLKKAMIVRNAKDTAHTKAERNILEEVKHPFIVDLIYAFQTGGKLYLILEYLSGGELFMQLEREGIFMEDTACFYLAEISMALGHLHQKGIIYRDLKPENIMLNHQGHVKLTDFGLCKESIHDGTVTHTFCGTIEYMAPEILMRSGHNRAVDWWSLGALMYDMLTGAPPFTGENRKKTIDKILKCKLNLPPYLTQEARDLLKKLLKRNAASRLGAGPGDAGEVQAHPFFRHINWEELLARKVEPPFKPLLQSEEDVSQFDSKFTRQTPVDSPDDSTLSESANQVFLGFEYVAPSVLESVKEKFSFEPKIRSPRRFIGSPRTPVSPVKFSPGDFWGRGASASTANPQTPVEYPMETSGIEQMDVTMSGEASAPLPIRQPNSGPYKKQAFPMISKRPEHLRMNL | – | – | – | serine/threonine phosphorylation of Gli1 was observed with the ectopic expression of S6K1 or S6K1T389E (FIG. 3A), but neither S6K1T389A nor S6K1K100R |
